Data: US6359005B1, “Method for the treatment of mania and bipolar disorder” (Warner-Lambert Company, priority 1998, dated 2002)

Experiment: Toxicity / tolerability of the compound
Conditions: in vivo

Question: With `CC(C)C[C@H](CN)CC(=O)O` [Pregabalin, (S)-3-(aminomethyl)-5-methylhexanoic acid] as the compound, how does the Toxicity read?
Answer: Its Toxicity is “relatively nontoxic”.
